This experiment deals with Sprague-Dawley rats. The experiment in a line: Food intake in rats following IV administration of DAC. The class given is in vivo, rat. The conditions noted are these: tail vein injection. The procedure: Compound I (PYY3-36) and Compound III were injected into the tail vein of fully grown Sprague-Dawley rats. Two experiments were carried out so as to verify the influence of the concentration on Compound III of the food consumption of the animal. The food intake was measured pre and post administration (see FIGS. 1 and 2). In experiment 1 on FIG. 1, 4-500 g rats were used and in experiment 2 on FIG. 2, 2-300 g rats were used.

The values that follow come from patent US20090099074A1, “MODULATING FOOD INTAKE” (CONJUCHEM BIOTECHNOLOGIES INC., priority 2007, published 2009).

The structures appear in SMILES notation.

Take `CC[C@H](C)[C@H](N)C(=O)N[C@@H](CCCCN)C(=O)N1CCC[C@H]1C(=O)N[C@@H](CCC(=O)O)C(=O)N[C@@H](C)C(=O)N1CCC[C@H]1C(=O)NCC(=O)N[C@@H](CCC(=O)O)C(=O)N[C@@H](CC(=O)O)C(=O)N[C@@H](C)C(=O)N[C@@H](CO)C(=O)N1CCC[C@H]1C(=O)N[C@@H](CCC(=O)O)C(=O)N[C@@H](CCC(=O)O)C(=O)N[C@@H](CC(C)C)C(=O)N[C@@H](CC(N)=O)C(=O)N[C@@H](CCCNC(=N)N)C(=O)N[C@@H](Cc1ccc(O)cc1)C(=O)N[C@@H](Cc1ccc(O)cc1)C(=O)N[C@@H](C)C(=O)N[C@@H](CO)C(=O)N[C@@H](CC(C)C)C(=O)N[C@@H](CCCNC(=N)N)C(=O)N[C@@H](Cc1c[nH]cn1)C(=O)N[C@@H](Cc1ccc(O)cc1)C(=O)N[C@@H](CC(C)C)C(=O)N[C@@H](CC(N)=O)C(=O)N[C@@H](CC(C)C)C(=O)N[C@H](C(=O)N[C@H](C(=O)N[C@@H](CCCNC(=N)N)C(=O)N[C@@H](CCC(N)=O)C(=O)N[C@@H](CCCNC(=N)N)C(=O)N[C@@H](Cc1ccc(O)cc1)C(N)=O)[C@@H](C)O)C(C)C` [Compound I]: the “reduction in food intake after 24 hrs” value reads like this: (25 nmol/kg) “does not show reduction in food”; (375 nmol/kg, result in words) “does not show reduction in food”.
